# Measured affinities in a library of Ab-91 heavy chain variants

Target peptide (SARS-CoV-2 spike, HR2 region): PDVDLGDISGINAS

Parent: Ab-91, a human scFv built as VL, three GGGGS repeats, VH. Only the CDRs of the heavy chain vary.
VL: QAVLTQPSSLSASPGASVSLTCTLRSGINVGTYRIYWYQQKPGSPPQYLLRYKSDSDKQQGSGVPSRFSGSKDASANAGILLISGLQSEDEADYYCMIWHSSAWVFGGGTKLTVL
VH: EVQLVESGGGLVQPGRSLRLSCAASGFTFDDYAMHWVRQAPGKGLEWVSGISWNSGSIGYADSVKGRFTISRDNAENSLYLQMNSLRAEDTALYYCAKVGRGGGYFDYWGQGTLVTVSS

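The library (AAYL51) carries one to three amino acid substitutions per variant, with no insertions or deletions. Affinity was read by AlphaSeq, a pooled yeast mating assay with surface-displayed partners. The frequency of each diploid, read from paired DNA barcodes, reflects how well the two displayed proteins bind. Each replicate has its own calibration line, from reference interactions of the BCL2 family. There are three technical replicates.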

Changes read parent residue, position, new residue, counted from the first residue of the VH shown. Kd is apparent (estimated from mating counts) and averaged on the log scale over replicates with a signal. Smaller is tighter. "nd" marks a missing value. The strain was present, yet no cells mated with the target were sequenced in any replicate, which points to weak or no binding. Nonspecific signal, from three strains lacking the peptide, appeared in 21% of pairings of library AAYL51, centred on 34 µM (5% of these signals below 1.8 µM); values are not corrected for it. The control count says in how many pairings with the empty strains this scFv gave a signal.

changes	Kd	replicates with signal	empty controls
D31Y/M34Q/G102Y	nd	0 of 3	0 of 9
M34R/R101I/G104M	3.6 µM	2 of 3	3 of 9
H35G/G50K/S63L	3.3 µM	1 of 3	1 of 9
W53R/N54E/G102K	nd	0 of 3	0 of 9
S52K/S57K/G102Y	41 µM	1 of 3	3 of 9
T28W/I51Q/G104I	nd	0 of 3	0 of 9
I51S/W53I/K65H	350 µM	1 of 3	2 of 9
F27W/A33G/G50H	19 µM	1 of 3	5 of 9
H35I/S55M/I58Y	nd	0 of 3	1 of 9
A33S/K65C	58 µM	1 of 3	4 of 9
N54Y/D107I	nd	0 of 3	0 of 9
G59K/R101D/G103D	nd	0 of 3	0 of 9
G26S/F106V/D107R	1.6 µM	1 of 3	2 of 9
I51G/S57M/A61P	nd	0 of 3	0 of 9
D62Q/G104K/F106V	nd	0 of 3	0 of 9
W53K/V64A/V99N	nd	0 of 3	2 of 9
T28Y/I51S/F106E	81 µM	2 of 3	2 of 9
Y32H/A33V	95 µM	2 of 3	2 of 9
F29D/D31A	nd	0 of 3	0 of 9
F27T/G50I/Y105V	2.4 µM	1 of 3	0 of 9
D30P/K65H/G102T	6.2 nM	3 of 3	3 of 9
F29A/G103I	nd	0 of 3	1 of 9
G59Y/G104P/Y105Q	nd	0 of 3	0 of 9
I58A/G100I/Y105M	1.9 µM	2 of 3	0 of 9
S52C/I58Y/G103V	240 µM	2 of 3	5 of 9

Further variants, results first:

Kd	replicates with signal	empty controls	changes
4.1 nM	3 of 3	2 of 9	D31N/D62S/R101C
8.4 µM	2 of 3	0 of 9	G26W/N54C
210 µM	1 of 3	1 of 9	N54A/A61V/R101K
nd	0 of 3	0 of 9	F27P/I51Q/F106R
nd	0 of 3	0 of 9	H35F/I51T/G104D
nd	0 of 3	0 of 9	D31V/S55D/G103S
12 µM	1 of 3	0 of 9	G26K/F27W/S55G
110 µM	3 of 3	7 of 9	G26Y/A33D/G102C
nd	0 of 3	1 of 9	F29C/G56A/D107Q
70 µM	1 of 3	0 of 9	W53E/S55P/K65E
120 µM	3 of 3	4 of 9	A33R/G56S/S57M
nd	0 of 3	2 of 9	G56K/A61C/D107G
2.9 µM	3 of 3	3 of 9	T28R/G56T/G103L
nd	0 of 3	0 of 9	F27W/W53K/A61Q
26 µM	2 of 3	4 of 9	A33Q/D62A/R101Q
18 nM	3 of 3	5 of 9	F29Y/W53M/Y108E
11 µM	1 of 3	3 of 9	S55M/D62W/D107Q
nd	0 of 3	1 of 9	S52N/G102S/Y108A
21 nM	3 of 3	2 of 9	S57N/G102D/G103K
440 µM	2 of 3	2 of 9	A61M/V64P/R101V
2.0 µM	1 of 3	2 of 9	M34G/S55K
nd	0 of 3	0 of 9	G56R/S57K/G104M
29 µM	3 of 3	1 of 9	G56H/G59Y/S63D
nd	0 of 3	0 of 9	Y60H/A61H/G102N
nd	0 of 3	0 of 9	H35E/Y60H

Again, the first 3 entries without any signal:

changes	Kd	replicates with signal	empty controls
D31Y/M34Q/G102Y	nd	0 of 3	0 of 9
W53R/N54E/G102K	nd	0 of 3	0 of 9
T28W/I51Q/G104I	nd	0 of 3	0 of 9

Source: Engelhart et al. 2022 (doi:10.1038/s41597-022-01779-4), MIT Lincoln Laboratory and A-Alpha Bio; data file from the FLAb repository.